{
  "sequences": {"note": "By UniProt entry, the sequences of proteins in these tests, tags left out.", "UniProt P81908, whole entry": "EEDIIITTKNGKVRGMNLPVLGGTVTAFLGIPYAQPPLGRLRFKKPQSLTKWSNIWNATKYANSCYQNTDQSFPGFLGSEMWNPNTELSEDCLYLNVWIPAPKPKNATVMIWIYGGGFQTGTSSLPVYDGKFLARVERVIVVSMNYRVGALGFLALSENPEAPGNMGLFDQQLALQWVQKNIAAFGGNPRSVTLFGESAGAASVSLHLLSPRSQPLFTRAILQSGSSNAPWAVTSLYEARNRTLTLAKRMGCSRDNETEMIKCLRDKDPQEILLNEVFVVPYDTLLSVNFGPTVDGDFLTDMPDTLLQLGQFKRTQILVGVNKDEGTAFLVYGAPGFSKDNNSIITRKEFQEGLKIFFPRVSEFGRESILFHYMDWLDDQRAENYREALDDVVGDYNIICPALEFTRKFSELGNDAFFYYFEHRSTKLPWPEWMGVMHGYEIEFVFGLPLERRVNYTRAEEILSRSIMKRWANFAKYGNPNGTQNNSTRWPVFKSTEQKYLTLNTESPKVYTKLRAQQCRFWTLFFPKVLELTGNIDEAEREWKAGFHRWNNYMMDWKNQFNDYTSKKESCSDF"},
  "source": "paper PMC10061512",
  "about": "(ACS Omega, 2023)",
  "target": "eqBChE (Equus caballus, UniProt P81908)",
  "experiment": "BChE inhibition and enzyme kinetics, Ellman assay",
  "assay_type": "biochemical, equine",
  "data": [
    {"molecule": "O=c1ccc2ccc(O)cc2o1", "note": "[compound 17, 7-hydroxycoumarin]", "values": [
      {"measurement": "IC50", "result": "180 ± 4.58", "unit": "µM"}
    ]}
  ]
}
